Results as given in patent publication US20230293639A1, “SYSTEMS, DEVICES, COMPOSITIONS, AND METHODS FOR TREATING DIABETES” (Abvance Therapeutics, Inc., priority 2020, published 2023).

For `CSCC[C@H](NC(=O)[C@H](CC(C)C)NC(=O)[C@H](Cc1c[nH]c2ccccc12)NC(=O)[C@H](CCC(N)=O)NC(=O)[C@@H](NC(=O)[C@H](Cc1ccccc1)NC(=O)[C@H](CC(=O)O)NC(=O)[C@H](CCC(N)=O)NC(=O)[C@H](C)NC(=O)[C@H](CCCN=C(N)N)NC(=O)[C@H](CCCN=C(N)N)NC(=O)[C@H](CO)NC(=O)[C@H](CC(=O)O)NC(=O)[C@H](CC(C)C)NC(=O)[C@H](Cc1ccc(O)cc1)NC(=O)[C@H](CCCCN)NC(=O)[C@H](CO)NC(=O)[C@H](Cc1ccc(O)cc1)NC(=O)[C@H](CC(=O)O)NC(=O)[C@H](CO)NC(=O)[C@@H](NC(=O)[C@H](Cc1ccccc1)NC(=O)[C@@H](NC(=O)CNC(=O)[C@H](CCC(N)=O)NC(=O)[C@H](CO)NC(=O)[C@@H](N)Cc1c[nH]cn1)[C@@H](C)O)[C@@H](C)O)C(C)C)C(=O)N[C@@H](CC(N)=O)C(=O)N[C@H](C(=O)O)[C@@H](C)O` [glucagon], the gelling (AB pH 3.65, no excipient) was “gelling was observed” and the gelling (AB pH 4.02, no excipient) was “gelling was observed”.

Read-outs that look alike come from different tables or passages of the source.
